The values that follow are results of earlier work, collected in PMC3400037, “Application of a single-objective, hybrid genetic algorithm approach to pharmacokinetic model building” (Journal of Pharmacokinetics and Pharmacodynamics, 2012).

The conditions of the data set: final stepwise model; oral; cited from earlier work.

Turning to `CN(C)CCC[C@@]1(c2ccc(F)cc2)OCc2cc(C#N)ccc21` [Escitalopram, escitalopram], the “Inter-individual variability—ωCL of ηCL” value was 48.5 % (15.1 %).
